Results reported in patent publication US20260382635A1, “NITROSYL-HEME FORMULATIONS FOR THE TREATMENT OF CARDIOVASCULAR CONDITIONS, HEMOLYSIS, AND THE STABILIZATION OF CELL-FREE HEME MOLECULES” (published 2026).

How the values were obtained:
[1] = NO-ferroheme formation kinetics in red blood cell membrane ghosts (UV-Vis); details: role: product; 25 μM heme, 100 μM NO, no thiol, anoxic, room temperature, 10% red cell ghosts
Description: Red cells were separated from the whole blood by sedimentation via centrifugation at 1000 g for 10 minutes. These packed red cells were then hemolyzed using 5 mM phosphate buffer, pH 8 (4.674 mM Na2HPO4+0.326 mM NaH2PO4) in the volume ratio of 1:40 for an hour. The mixture was spun at 35,000 g for 30 minutes at 20 °C and washed with the buffer repeatedly until the white ghosts were produced. The absence of hemoglobin was confirmed by taking the absorption of the ghosts in the range of 300-700 nm. Differential interface contrast microscopy images of the ghost membranes were taken via a Zeiss Axio Observer D1 Microscope. Images were collected and processed using ImageJ (1.44p).
Heme is hydrophobic and can be solubilized in organic solvents like methanol. […] The use of RBC membrane ghosts enabled characterization of the NO-ferroheme product by low temperature electron paramagnetic resonance (EPR) spectroscopy. Both reactions (in the presence and absence GSH) give rise to a rhombic EPR spectrum characteristic of a five-coordinate NO-ferroheme species with g-values at 2.081, 2.054, and 2.012 for gmax, gmid, and gmin, respectively, and a three-line hyperfine splitting centered on gmin (^NOA=47 MHz, FIG. 2D).^45,46
25 μM heme and 100 μM NO were reacted in the red cell ghost system under anoxic conditions at room temperature in the absence of any thiol species. […]

apo-myoglobin = assay: NO-ferroheme transfer from RBC ghost membranes to apo-myoglobin; details: 15 μM hemin, 50 μM NO, 150 μM GSH; 20 μM apo-myoglobin; 21 °C
Description: FIGS. 10A-10B show other transfers of NO-ferroheme. […] 25 μM ferric heme, 50 μM glutathione, and 50 μM NO were added to 75 μM albumin under deaerated conditions. Addition of RBC ghost membranes results in typical light scattering due to turbidity from insoluble membranes. The mixture was centrifuged at 30,000 g for 2 hours, leaving behind NO-ferroheme in the albumin (hashed line), indicating little transfer to the membranes. FIG. 10B, Direct formation of NO-myoglobin from a mixture of RBC ghost membrane-solubilized NO-ferroheme (from 15 μM hemin, 50 μM NO, and 150 μM GSH) and 20 μM apo-myoglobin. Transfer experiments were conducted at 21 °C.
Albumin can mediate vascular NO-ferroheme signaling by transferring from albumin to heme binding protein. To assess and model such transfer, NO-ferroheme albumin was added to an equivalent of apo-myoglobin in an anaerobic solution at 37 °C (FIG. 3E). […] The isosbestic points at 397, 522, and 593 nm indicate direct transfer without formation of any other species or intermediates. Direct formation of NO-myoglobin from apo-myoglobin with NO-ferroheme in membranes is also readily observed (FIG. 10B). […] Thus, direct transfer of NO-ferroheme from solubilizing membranes or albumin to another apo-hemoprotein, like sGC, is feasible.

albumin [2] = assay: NO-ferroheme transfer from RBC membranes to serum albumin; details: 25 μM ferric heme, 50 μM glutathione, 50 μM NO, RBC ghosts, 37 °C
Description: Heme (25 μM), 50 μM NO, and 50 μM GSH were reacted for 30 minutes in the presence of red cell membrane ghosts under anaerobic conditions. The sample was incubated for another 30 minutes at 37 °C after adding 75 μM albumin. After incubation, the sample was scanned for absorption in the Cary 50 UV-Vis spectrometer. The sample was subsequently spun at 30,000 g for two hours in a Sorvall® RC-5B centrifuge and the absorption spectrum of the supernatant was measured.
As labile heme (and thus potentially NO-ferroheme) can be found in membranes, the transfer of NO-ferroheme formed in RBC ghosts to albumin was qualitatively characterized. Ferric heme (25 μM), 50 μM glutathione, and 50 μM NO were added to RBC ghosts under anaerobic conditions at 37 °C (FIG. 3D). After subsequent incubation with albumin, the mixture was centrifuged at 30,000×g for 2 hours to remove membranes. […] Transfer of NO-ferroheme from membranes to albumin is unidirectional under these conditions (FIG. 10A).

albumin [3] = details: cited from earlier work

Structure (SMILES): C=CC1=C(C)c2cc3[nH]c(cc4nc(cc5[nH]c(cc1n2)c(C)c5CCC(=O)O)C(CCC(=O)O)=C4C)c(C)c3C=C.[Fe+2]
- calculated half-life of NO-ferroheme formation [1]: about 4 minutes
- direct formation of NO-myoglobin from NO-ferroheme in membranes (apo-myoglobin): readily observed
- transfer of NO-ferroheme from membranes to albumin (albumin [2]): demonstrating transfer from membranes to albumin
- NO koff from NO-ferroheme in albumin binding pocket (albumin [3]): 0.00014 s⁻¹
